Measured values published in ChEMBL document CHEMBL1125563, “Selective, centrally acting serotonin 5-HT2 antagonists. 1. 2- and 6-substituted 1-phenyl-3-(4-piperidinyl)-1H-indoles” (J Med Chem, 1992).

Chains of the proteins cited; added tags and fusions are not shown. Lines headed by an entry give the natural chain unless they say otherwise; changes in a name come on top.
UniProt P30994: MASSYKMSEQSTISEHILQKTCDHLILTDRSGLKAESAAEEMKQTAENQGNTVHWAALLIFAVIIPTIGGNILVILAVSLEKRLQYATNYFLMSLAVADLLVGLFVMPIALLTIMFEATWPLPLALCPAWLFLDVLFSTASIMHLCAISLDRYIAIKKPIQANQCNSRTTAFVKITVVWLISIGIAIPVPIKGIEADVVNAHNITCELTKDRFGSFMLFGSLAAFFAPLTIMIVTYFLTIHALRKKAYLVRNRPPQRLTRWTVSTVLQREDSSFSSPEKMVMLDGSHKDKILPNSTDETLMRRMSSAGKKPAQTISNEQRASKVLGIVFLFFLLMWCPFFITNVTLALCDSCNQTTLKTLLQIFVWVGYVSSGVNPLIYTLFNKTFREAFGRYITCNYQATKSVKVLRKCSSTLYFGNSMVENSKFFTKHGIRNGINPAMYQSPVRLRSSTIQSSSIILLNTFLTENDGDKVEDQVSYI
UniProt P08909: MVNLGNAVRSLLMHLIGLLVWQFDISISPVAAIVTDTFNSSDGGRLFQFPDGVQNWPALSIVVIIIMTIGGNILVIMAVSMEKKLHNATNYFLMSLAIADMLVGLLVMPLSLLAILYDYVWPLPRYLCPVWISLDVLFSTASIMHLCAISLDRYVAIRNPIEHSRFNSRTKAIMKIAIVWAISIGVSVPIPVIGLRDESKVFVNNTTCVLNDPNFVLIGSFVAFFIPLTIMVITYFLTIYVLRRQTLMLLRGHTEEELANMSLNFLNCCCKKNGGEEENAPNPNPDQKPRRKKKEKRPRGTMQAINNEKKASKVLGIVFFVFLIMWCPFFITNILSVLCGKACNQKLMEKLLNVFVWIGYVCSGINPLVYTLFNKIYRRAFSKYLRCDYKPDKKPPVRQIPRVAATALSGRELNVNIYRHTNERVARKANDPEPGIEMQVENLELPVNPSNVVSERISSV
UniProt P14842: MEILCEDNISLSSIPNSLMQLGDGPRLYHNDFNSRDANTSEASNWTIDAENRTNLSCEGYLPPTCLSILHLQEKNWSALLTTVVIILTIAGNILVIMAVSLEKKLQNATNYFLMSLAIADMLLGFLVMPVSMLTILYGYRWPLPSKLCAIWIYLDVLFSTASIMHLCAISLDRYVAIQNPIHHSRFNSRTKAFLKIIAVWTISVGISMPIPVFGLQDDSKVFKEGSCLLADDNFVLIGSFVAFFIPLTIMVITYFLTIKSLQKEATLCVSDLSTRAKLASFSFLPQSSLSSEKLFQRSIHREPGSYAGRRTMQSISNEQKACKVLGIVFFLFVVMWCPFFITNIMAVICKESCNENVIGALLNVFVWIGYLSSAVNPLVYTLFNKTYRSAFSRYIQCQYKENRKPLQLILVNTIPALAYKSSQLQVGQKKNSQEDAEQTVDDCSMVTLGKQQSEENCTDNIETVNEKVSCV

Biological target: Serotonin 2 (5-HT2) receptor (Rattus norvegicus, UniProt P30994+P08909+P14842)
Experiment: Displacement of [3H]ketanserin from 5-hydroxytryptamine 2 receptor from rat cortical membranes.
Type: cell membranes, Membrane
In short: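 [3H]ketanserin displacement from rat cortical membranes (5-HT2). Five concentrations across three decades in triplicate, two full curves; IC50 estimated on a log-concentration scale, given as logarithmic mean of at least two determinations.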

Q: O=C1NCCN1CCN1CCC(c2cn(-c3ccc(F)cc3)c3ccc(Cl)cc23)CC1 [SERTINDOLE] was tested. Which IC50 did it give?
A: Its IC50 is 0.39 nM.
